From patent publication US20230364109A1, “GANAXOLONE FOR USE IN TREATMENT OF SUPER REFRACTORY STATUS EPILEPTICUS” (MARINUS PHARMACEUTICALS, INC., priority 2020, published 2023)

Test system: benzodiazepine-resistant SE
Conditions: experimental animals

CC(=O)[C@H]1CC[C@H]2[C@@H]3CC[C@H]4C[C@](C)(O)CC[C@]4(C)[C@H]3CC[C@]12C [ganaxolone, 3α-hydroxy-3β-methyl-5α-pregnan-20-one]
effect on benzodiazepine-resistant SE (convulsions, EEG seizure activity, survival): immediate and prolonged cessation of benzodiazepine-resistant SE
